{"source": "PubChem BioAssay AID588856", "about": "(National Center for Advancing Translational Sciences (NCATS), 2011)", "note": "Only a part is listed here, and it is no random draw. The source made the active and inactive calls. Calls follow the shape of the dose curve; as a rule, active = well fitted cell-killing curve with a large enough effect; inactive = no such curve, though single readings can be large or run the other way."}
{"test": "qHTS for Inhibitors of TGF-b: Cytotox Counterscreen", "settings": "HepG2 CAGA-GFP viability, ATP luminescence, 18 h; series mostly up to 46.1 µM; activity change, negative = cytotoxicity: at the top concentration", "procedure,_shortened": "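HepG2 CAGA-GFP cells (1000/well, DMEM with 1% FBS) received compound, then TGF-beta at 500 pg/mL final, and were incubated 18 hours at 37 degrees C. Viability was read by CellTiter-Glo luminescence. Media-only wells were set as complete cell-killing and DMSO as no toxicity.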"}
{"smiles": "O=C(NC1CCS(=O)(=O)C1)NP(=S)(Oc1ccccc1)Oc1ccccc1", "note": "(stereo not given)", "activity change, negative = cytotoxicity": "inactive: -20.2%"}
{"smiles": "CCNC(=S)/N=C(\\N)N[N+](=O)[O-]", "activity change, negative = cytotoxicity": "inactive: -1.92%"}
{"smiles": "CN(C)C(=O)Oc1noc2ccccc12", "activity change, negative = cytotoxicity": "inactive: 9.98%"}
{"smiles": "O=c1c2cc([N+](=O)[O-])ccc2[nH]c2c([N+](=O)[O-])cc([N+](=O)[O-])cc12", "activity change, negative = cytotoxicity": "inactive: -8.21%"}
{"smiles": "Cc1ccccc1OP(=O)(Nc1ccccn1)Oc1ccccc1C", "activity change, negative = cytotoxicity": "inactive: 8.76%"}
{"smiles": "CC(NC(=O)COC(=O)C(O)(c1ccccc1)c1ccccc1)c1ccccc1", "note": "(stereo not given)", "activity change, negative = cytotoxicity": "inactive: -23.8%"}
{"smiles": "CCC(=O)N1C2C3N(C(=O)CC)C1C1N(C(=O)CC)C(C(N1C(=O)CC)N3C(=O)CC)N2C(=O)CC", "activity change, negative = cytotoxicity": "inactive: -0.367%"}
{"smiles": "O=C(OC1CN2CCC1CC2)c1ccccc1", "note": "(stereo not given)", "activity change, negative = cytotoxicity": "inactive: -18.7%"}
{"smiles": "CC(=O)NC(SC(=S)N(CC(C)C)CC(C)C)C(Cl)(Cl)Cl", "note": "(stereo not given)", "activity change, negative = cytotoxicity": "inactive: -0.353%"}
{"smiles": "Cc1ccc(OP(=O)(Nc2ccccn2)Oc2ccc(C)cc2)cc1", "activity change, negative = cytotoxicity": "inactive: -17.5%"}
{"smiles": "COC(=O)c1cc2c(s1)N=C(c1ccccc1)N(C)P2(=O)N1CCOCC1", "note": "(stereo not given)", "activity change, negative = cytotoxicity": "inactive: -34.6%"}
{"smiles": "O=C(C[N+]12CCC(CC1)C(OC(=O)c1ccccc1)C2)c1ccc([N+](=O)[O-])cc1", "note": "(stereo not given)", "activity change, negative = cytotoxicity": "inactive: 94.6%"}
{"smiles": "CC(C)(C)C(=O)NC(Sc1ccccc1)C(Cl)(Cl)Cl", "note": "(stereo not given)", "activity change, negative = cytotoxicity": "inactive: 10.7%"}
{"smiles": "CCc1cc(O)c([N+](=O)[O-])c(C)c1[N+](=O)[O-]", "activity change, negative = cytotoxicity": "inactive: 1.63%"}
{"smiles": "CCOc1ccc(C2=NCC(CBr)S2)cc1", "note": "(stereo not given)", "activity change, negative = cytotoxicity": "inactive: 24.8%"}
{"smiles": "O=P1(Nc2nc3ccc(Cl)cc3s2)COc2ccccc2O1", "note": "(stereo not given)", "activity change, negative = cytotoxicity": "inactive: -12.3%"}
{"smiles": "CC1=CC2OC3CC4OC(=O)C=CC=CC(=O)OCCC(C)C(O)C(=O)OCC2(CC1)C4(C)C31CO1", "note": "(stereo not given)", "activity change, negative = cytotoxicity": "inactive: -30.1%"}
{"smiles": "CC(=O)Nc1ccc(Oc2c([N+](=O)[O-])cc([N+](=O)[O-])cc2[N+](=O)[O-])cc1", "activity change, negative = cytotoxicity": "inactive: 4.82%"}
{"smiles": "CC(=O)Nc1ccc([As](=O)(O)O)c(O)c1", "activity change, negative = cytotoxicity": "inactive: -4.9%"}
{"smiles": "C[C@@H]1C=CCP(=O)(Oc2ccccc2)O1", "note": "(stereo not given in full)", "activity change, negative = cytotoxicity": "inactive: 0.326%"}
{"smiles": "C[C@H]1OP(=O)(Oc2ccccc2)C[C@@H]2O[C@@H]21", "note": "(stereo not given in full)", "activity change, negative = cytotoxicity": "inactive: 8.77%"}
{"smiles": "Cc1ccccc1CN(C)C(=O)COC(=O)C(O)(c1ccccc1)c1ccccc1", "activity change, negative = cytotoxicity": "inactive: -17.7%"}
{"smiles": "COC(=O)C1(C)COP(=O)(NCc2ccccc2)OC1", "note": "(stereo not given)", "activity change, negative = cytotoxicity": "inactive: -9.29%"}
{"smiles": "N#C/C(=C\\c1ccc(N(CCBr)CCBr)cc1)C(N)=O", "activity change, negative = cytotoxicity": "inactive: -8.89%"}
{"smiles": "CC(=O)c1ccc(N2CC2c2ccncc2)cc1", "note": "(stereo not given)", "activity change, negative = cytotoxicity": "inactive: -4.2%"}
{"smiles": "Clc1ccc(Cl)c(NC2=NCC(CBr)S2)c1", "note": "(stereo not given)", "activity change, negative = cytotoxicity": "inactive: -2.43%"}
{"smiles": "CN1CCCC(OC(=O)C(c2ccccc2)c2ccccc2)C1", "note": "(stereo not given)", "activity change, negative = cytotoxicity": "inactive: -17.8%"}
{"smiles": "Cc1ccc(OP(=O)(Nc2nccs2)Oc2ccc(C)cc2)cc1", "activity change, negative = cytotoxicity": "inactive: 2.57%"}
{"smiles": "COc1ccccc1OP(=O)(Nc1ccc(C)cn1)Oc1ccccc1OC", "activity change, negative = cytotoxicity": "inactive: 9.06%"}
{"smiles": "Cc1ccc(N/C(=N/P(=O)(N2CCOCC2)N2CCOCC2)N2CCOCC2)cc1", "activity change, negative = cytotoxicity": "inactive: -0.105%"}
{"smiles": "CN(C(=O)Cc1ccc(Cl)c(Cl)c1)[C@H]1CCCC[C@H]1N1CCCC1", "activity change, negative = cytotoxicity": "inactive: -10.1%"}
{"smiles": "O=[N+]([O-])c1cc2c(cc1[N+](=O)[O-])OCO2", "activity change, negative = cytotoxicity": "inactive: 8.6%"}
{"smiles": "NC(=O)c1cc([N+](=O)[O-])cc([N+](=O)[O-])c1N", "activity change, negative = cytotoxicity": "inactive: 16.3%"}
{"smiles": "O=[N+]([O-])C1C(O)C(O)C([N+](=O)[O-])C(O)C1O", "note": "(stereo not given)", "activity change, negative = cytotoxicity": "inactive: -16.3%"}
{"smiles": "COc1ccc(O)c2c(=O)c3c(OC)cc4c(c3oc12)C1C=COC1O4", "note": "(stereo not given)", "activity change, negative = cytotoxicity": "inactive: 0.603%"}
{"smiles": "O=C(NC(Sc1ccncn1)C(Cl)(Cl)Cl)c1ccccc1", "note": "(stereo not given)", "activity change, negative = cytotoxicity": "inactive: 17.8%"}
{"smiles": "Oc1ccccc1CNc1ccccn1", "activity change, negative = cytotoxicity": "inactive: -4.02%"}
{"smiles": "CC(C)CC(=O)NC(Sc1ccc(Cl)cc1)C(Cl)(Cl)Cl", "note": "(stereo not given)", "activity change, negative = cytotoxicity": "inactive: -32.8%"}
{"smiles": "Nc1cc(N)c2nonc2c1[N+](=O)[O-]", "activity change, negative = cytotoxicity": "inactive: -1.58%"}
{"smiles": "C=C(C=O)C[C@@H]1C[C@H](O)C2OC3C[C@]4(C)OC5/C=C\\CC6OC7C(CC=CCC6OC5CCCC4OC3CC2O1)OC1CC2OC3CC(=O)OC3C[C@@H](C)C[C@@]2(C)OC1C[C@@H]7C", "note": "(stereo not given in full)", "activity change, negative = cytotoxicity": "inactive: -50.7%"}
{"smiles": "CN(C(=O)Cc1ccc(Cl)c(Cl)c1)[C@H]1CCCC[C@@H]1N1CCCC1", "activity change, negative = cytotoxicity": "inactive: -41.8%"}
{"smiles": "Cc1ccc(NP(=O)(Oc2ccccc2F)Oc2ccccc2F)nc1", "activity change, negative = cytotoxicity": "inactive: 39.4%"}
{"smiles": "CCOP(=O)(Nc1ccccc1)OCC", "activity change, negative = cytotoxicity": "inactive: 10%"}
{"smiles": "Cc1cc(SC(NC(=O)c2ccc(F)cc2)C(Cl)(Cl)Cl)ncn1", "note": "(stereo not given)", "activity change, negative = cytotoxicity": "inactive: 2.45%"}
{"smiles": "CN(C)P(=O)(N(C)C)n1c(Nc2ccccc2)nnc1-c1ccccc1", "activity change, negative = cytotoxicity": "inactive: -24.1%"}
{"smiles": "O=P(Nc1nc2ccc(Cl)cc2s1)(c1ccccc1)c1ccccc1", "activity change, negative = cytotoxicity": "inactive: -7.55%"}
{"smiles": "CCCC1OP(N)(=O)OCC1CC", "note": "(stereo not given)", "activity change, negative = cytotoxicity": "inactive: 2.42%"}
{"smiles": "O=C(O)c1ccccc1[As](=O)(O)O", "activity change, negative = cytotoxicity": "inactive: -6.19%"}
{"smiles": "CC(=O)Nc1ccc([As](=O)(O)O)cc1", "activity change, negative = cytotoxicity": "inactive: 5.54%"}
{"smiles": "Nc1cccc2ccc([As](=O)(O)O)cc12", "activity change, negative = cytotoxicity": "inactive: 15.8%"}
{"smiles": "CCN(N=Nc1nonc1N)c1nonc1N", "activity change, negative = cytotoxicity": "inactive: 17.6%"}
{"smiles": "Nc1c(O)cc([N+](=O)[O-])cc1[N+](=O)[O-]", "activity change, negative = cytotoxicity": "inactive: 38.2%"}
{"smiles": "O=C(Nc1cc([As](=O)(O)O)ccc1O)c1ccccc1", "activity change, negative = cytotoxicity": "inactive: 5.08%"}
{"smiles": "O=P(/N=c1/nc(-c2ccccc2)n(-c2ccccc2)s1)(Nc1ccccc1)Nc1ccccc1", "activity change, negative = cytotoxicity": "inactive: -21.8%"}
{"smiles": "O=P1(N(CCCl)CCCl)OCCCS1", "note": "(stereo not given)", "activity change, negative = cytotoxicity": "inactive: 2.05%"}
{"smiles": "Cc1cc(C=O)ccc1N(CCCl)CCCl", "activity change, negative = cytotoxicity": "inactive: 2.84%"}
{"smiles": "O=C(O)CNc1ccc([As](=O)(O)O)cc1", "activity change, negative = cytotoxicity": "inactive: -0.83%"}
{"smiles": "O=[N+]([O-])c1cccc(NC2=NCC(CBr)S2)c1", "note": "(stereo not given)", "activity change, negative = cytotoxicity": "inactive: 7.09%"}
{"smiles": "COC(=O)C1(C)COP(=O)(Nc2ccccc2)OC1", "note": "(stereo not given)", "activity change, negative = cytotoxicity": "inactive: 3.75%"}
{"smiles": "O=[N+]([O-])c1ncn(CCn2ncnc2[N+](=O)[O-])n1", "activity change, negative = cytotoxicity": "inactive: 12.1%"}
{"smiles": "CC(C)(C)C(=O)NC(Sc1ccncn1)C(Cl)(Cl)Cl", "note": "(stereo not given)", "activity change, negative = cytotoxicity": "inactive: -24.6%"}
{"smiles": "O=[N+]([O-])c1cc([N+](=O)[O-])c(CCNc2ccccc2)c([N+](=O)[O-])c1", "activity change, negative = cytotoxicity": "inactive: -2.63%"}
{"smiles": "CCc1nc2c(n1)c1c(non1O)c1c2no[n+]1[O-]", "activity change, negative = cytotoxicity": "inactive: -43.6%"}
{"smiles": "Cc1ccc(NP(=O)(Oc2ccccc2)Oc2ccccc2)nc1", "activity change, negative = cytotoxicity": "inactive: -8.29%"}
{"smiles": "CC(=O)N1C2C3N(C(C)=O)C1C1N(C(C)=O)C(C(N1C(C)=O)N3C(C)=O)N2C(C)=O", "activity change, negative = cytotoxicity": "inactive: 8.47%"}
{"smiles": "O=[N+]([O-])c1cccc2n[nH]nc12", "activity change, negative = cytotoxicity": "inactive: 16.6%"}
{"smiles": "COc1ccc(C2=NCC(CBr)S2)cc1", "note": "(stereo not given)", "activity change, negative = cytotoxicity": "inactive: -15.4%"}
{"smiles": "c1cc(-c2nn[nH]n2)ccc1-c1nn[nH]n1", "activity change, negative = cytotoxicity": "inactive: -0.683%"}
{"smiles": "CC1CCN(C(=O)Oc2c(Cl)cc(Cl)c3cccnc23)CC1", "activity change, negative = cytotoxicity": "inactive: -3.91%"}
{"smiles": "CN(C)C(=O)OCCc1n(C)cc[n+]1C", "activity change, negative = cytotoxicity": "inactive: -2.62%"}
{"smiles": "CC(C)=N/N=C(\\N)N[N+](=O)[O-]", "activity change, negative = cytotoxicity": "inactive: 13.3%"}
{"smiles": "COc1cc([N+](=O)[O-])c([N+](=O)[O-])cc1OC", "activity change, negative = cytotoxicity": "inactive: -2.39%"}
{"smiles": "CC(C)c1nc(Nc2ccccc2)n(P(=O)(N(C)C)N(C)C)n1", "activity change, negative = cytotoxicity": "inactive: -21.9%"}
{"smiles": "CCN(/C(=N/P(=O)(N1CCOCC1)N1CCOCC1)N1CCOCC1)c1ccc(OC)cc1", "activity change, negative = cytotoxicity": "inactive: 8.56%"}
{"smiles": "Nc1ccc([As](=O)(O)c2ccc(N)cc2)cc1", "activity change, negative = cytotoxicity": "inactive: 7.79%"}
